The source of these data is PubChem BioAssay AID1524 (The Scripps Research Institute Molecular Screening Center, 2009).

The chains behind the UniProt entries cited, without tags or fusion partners. Where a name states a change or a piece, a line headed by the entry shows the natural chain unless it says otherwise.
UniProt O95977: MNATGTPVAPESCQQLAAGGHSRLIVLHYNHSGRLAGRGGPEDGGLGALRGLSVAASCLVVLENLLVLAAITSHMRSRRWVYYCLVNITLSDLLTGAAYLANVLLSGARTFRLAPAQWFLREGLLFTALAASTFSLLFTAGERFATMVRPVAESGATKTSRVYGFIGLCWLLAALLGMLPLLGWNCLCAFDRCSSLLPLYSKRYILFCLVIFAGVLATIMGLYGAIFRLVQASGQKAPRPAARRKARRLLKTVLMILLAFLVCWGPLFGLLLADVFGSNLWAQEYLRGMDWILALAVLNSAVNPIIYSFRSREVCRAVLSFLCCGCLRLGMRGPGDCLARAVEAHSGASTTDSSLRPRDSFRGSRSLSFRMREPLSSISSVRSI

In general, inhibition refers to the percentage by which the read-out fell short of the control.

Each structure is given as a SMILES string. The entries are a selection whose mix differs from that of the whole data set. The source made the active and inactive calls. Rule as the data show it: active = inhibition above about 30%; inactive = the rest.

In the experiment the target is Sphingosine 1-phosphate receptor 4 (Homo sapiens) (UniProt O95977). The experiment in a line: S1P4 receptor antagonists, human, confirmation, cell-based (AID 1524). Conditions: S1P4-expressing cell line, antagonist mode, reporter read-out; at 4.98 µM; stronger effect = higher value.

Turning to `C[N+]1=C2C=CC=CC=C2SC12C([N+](=O)[O-])=CC([N+](=O)[O-])=C[C-]2[N+](=O)[O-]` (stereo unspecified), the inhibition is active: 52.6%.
